# Target: opiate receptors isolated from rat brain
# Settings: read-out: Opiate Binding, IC50
# Description: The test compounds were evaluated for their ability to displace the binding of ^3 H-Naloxone to opiate receptors isolated from rat brain. […] The final pellet was resuspended in 2 volumes of 50 mM tris HCl (pH 7.4).
# Levorphanol (1×10^-5 M) was used as the displacer for non-specific binding. […] Total assay volume was 1.0 ml.
row,SMILES,IC50 [nM]
1,"Cc1cc(O)cc(C)c1CC(N)C(=O)N[C@H](C)C(=O)N1CCCc2ccccc21.Cl (stereo partly drawn) [Example 30, α-amino-4-hydroxy-2,6-dimethyl-N-[1R-methyl-2-oxo-2-(1,2,3,4-tetrahydro-1-quinolinyl)ethyl]benezenepropanamide, monohydrochloride]",61
2,"Cc1cc(O)cc(C)c1C[C@H](N)C(=O)N[C@H](C)C(=O)NCCc1cccs1.Cl [Example 39, 2,6-dimethyl-L-tyrosyl-N-[2-(2-thienyl)ethyl]-D-alainamide, monohydrochloride]",1.2

# From US4847241A, “Fluorenyl substituted tyrosyl dipeptide amides which are useful in treating pain” (priority 1988, dated 1989)
